Experimental data: patent US12414932B2, “Arsinothricin and methods of treating infections using arsinothricin” (priority 2018, dated 2025)

Chains of the proteins cited; added tags and fusions are not shown. Lines headed by an entry give the natural chain unless they say otherwise; changes in a name come on top. Residues count along the entry.
UniProt Q88LK7, 1-186: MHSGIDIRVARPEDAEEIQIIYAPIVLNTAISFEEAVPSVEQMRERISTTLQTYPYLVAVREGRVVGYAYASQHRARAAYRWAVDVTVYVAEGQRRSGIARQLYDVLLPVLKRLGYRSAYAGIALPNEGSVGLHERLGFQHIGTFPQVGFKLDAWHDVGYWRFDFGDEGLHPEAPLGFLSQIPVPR
UniProt P0A9C5, 2-469: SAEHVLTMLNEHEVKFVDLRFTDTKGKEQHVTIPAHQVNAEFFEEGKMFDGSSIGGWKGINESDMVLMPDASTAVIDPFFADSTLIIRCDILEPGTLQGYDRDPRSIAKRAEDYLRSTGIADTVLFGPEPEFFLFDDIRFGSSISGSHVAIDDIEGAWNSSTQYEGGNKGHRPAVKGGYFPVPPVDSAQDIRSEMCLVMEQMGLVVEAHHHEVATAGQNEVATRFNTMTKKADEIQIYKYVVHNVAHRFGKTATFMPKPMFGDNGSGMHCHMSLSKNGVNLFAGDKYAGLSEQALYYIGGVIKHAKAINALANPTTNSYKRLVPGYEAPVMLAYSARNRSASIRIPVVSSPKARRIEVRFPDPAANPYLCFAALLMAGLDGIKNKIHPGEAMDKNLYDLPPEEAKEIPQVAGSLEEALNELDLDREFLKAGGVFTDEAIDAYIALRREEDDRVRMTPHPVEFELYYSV
UniProt Q57146: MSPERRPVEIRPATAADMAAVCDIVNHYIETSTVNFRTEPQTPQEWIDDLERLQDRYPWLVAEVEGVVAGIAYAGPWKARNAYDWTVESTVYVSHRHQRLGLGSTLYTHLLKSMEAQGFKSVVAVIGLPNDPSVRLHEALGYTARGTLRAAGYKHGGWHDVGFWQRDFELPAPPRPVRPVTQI

How the values were obtained:
PpArsN1 = PpArsN1 (Pseudomonas putida, UniProt Q88LK7)
P. putida Aars1,2 = format: cell-based, Pseudomonas putida
E. coli AW3110 = format: cell-based, Escherichia coli
[1] = target: glutamine synthetase (GS) from E. coli (Escherichia coli, UniProt P0A9C5); details: purified E. coli GS, 37° C., mean±SE (n=3)
[2] = tested on: E. coli AW3110 bearing plasmid carrying PparsN1
[3] = tested on: carbapenem-resistant Enterobacter cloacae (ATCC BAA-2341)
[4] = tested on: wild type P. putida KT2440
[5] = target: phosphinothricin N-acetyltransferase (SvPAT) (Streptomyces viridochromogenes, UniProt Q57146); assay: N-acetyltransferase assay (DTNB) with SvPAT; format: biochemical, Streptomyces viridochromeogenes

SMILES | catalytic efficiency (Kcat/Km) compared with PT (PpArsN1) | resistance or sensitivity of the strain (P. putida Aars1,2) | resistance or sensitivity of the strain (E. coli AW3110) | Ki [1] | resistance or sensitivity of the strain [2] | growth inhibition of carbapenem-resistant E. cloacae [3] | resistance or sensitivity of the strain [4] | Kcat (PpArsN1; as substrate of PpArsN1) | Km (PpArsN1; as substrate of PpArsN1) | affinity and catalytic efficiency of SvPAT compared with PpArsN1 [5]
C[As](=O)(O)CC[C@H](N)C(=O)O [AST, 2-amino-4-(hydroxymethylarsinoyl) butanoate] | 15 fold | sensitive | similarly sensitive | 300 ± 50 nM | confers resistance | effectively inhibited the growth | resistant | – | – | –
CP(=O)(O)CCC(N)C(=O)O (racemic) [PT, phosphinothricin, reference compound] | – | sensitive | – | – | confers resistance | – | resistance | 9.6 ± 0.9 s⁻¹ | 1000 ± 200 µM | two orders of magnitude higher affinity
